Our source for the Ki and IC50 values is US9464084B2, “P2X7 modulators” (Janssen Pharmaceutica NV, priority 2013, dated 2016).

Amino acid sequences for entries named in this document (tags omitted). A change or cut given only in a name is not applied to a line headed by its entry.
UniProt Q99572: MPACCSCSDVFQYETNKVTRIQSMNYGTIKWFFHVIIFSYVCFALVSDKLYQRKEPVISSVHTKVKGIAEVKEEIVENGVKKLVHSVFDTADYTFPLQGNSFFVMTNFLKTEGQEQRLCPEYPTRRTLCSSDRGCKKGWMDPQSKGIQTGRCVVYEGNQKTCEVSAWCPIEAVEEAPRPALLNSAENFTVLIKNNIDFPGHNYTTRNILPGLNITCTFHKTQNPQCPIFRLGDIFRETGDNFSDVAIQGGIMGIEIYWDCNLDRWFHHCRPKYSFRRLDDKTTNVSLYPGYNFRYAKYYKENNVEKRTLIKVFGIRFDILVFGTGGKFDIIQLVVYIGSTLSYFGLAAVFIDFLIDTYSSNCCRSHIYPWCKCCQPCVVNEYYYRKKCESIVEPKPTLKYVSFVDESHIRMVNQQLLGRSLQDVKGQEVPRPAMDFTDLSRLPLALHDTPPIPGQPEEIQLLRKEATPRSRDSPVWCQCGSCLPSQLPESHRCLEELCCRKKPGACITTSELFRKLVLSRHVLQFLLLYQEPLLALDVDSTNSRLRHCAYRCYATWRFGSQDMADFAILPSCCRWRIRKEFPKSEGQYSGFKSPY
UniProt Q64663: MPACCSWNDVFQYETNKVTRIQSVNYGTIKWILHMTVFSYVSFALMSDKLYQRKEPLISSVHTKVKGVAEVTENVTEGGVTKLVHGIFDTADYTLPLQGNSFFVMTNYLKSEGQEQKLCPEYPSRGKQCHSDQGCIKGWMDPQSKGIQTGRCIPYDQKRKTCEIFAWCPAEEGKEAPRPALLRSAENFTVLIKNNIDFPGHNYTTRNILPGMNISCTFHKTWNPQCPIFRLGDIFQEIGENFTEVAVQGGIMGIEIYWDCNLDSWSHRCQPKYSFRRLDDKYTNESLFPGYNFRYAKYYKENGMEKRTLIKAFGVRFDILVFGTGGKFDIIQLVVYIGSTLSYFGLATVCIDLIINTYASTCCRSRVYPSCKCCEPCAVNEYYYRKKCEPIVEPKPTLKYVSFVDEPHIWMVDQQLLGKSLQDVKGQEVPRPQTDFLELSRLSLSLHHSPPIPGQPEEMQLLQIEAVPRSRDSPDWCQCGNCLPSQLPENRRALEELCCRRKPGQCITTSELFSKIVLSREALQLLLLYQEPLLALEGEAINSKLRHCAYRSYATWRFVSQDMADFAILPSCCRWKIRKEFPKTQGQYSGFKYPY

Each structure is given as a SMILES string. A value given as a limit tells only on which side of the number the result lay.

The target in the first experiment is T1, P2X7 (Homo sapiens (Human), UniProt Q99572). The experiment is described as follows: Radioligand binding, tritiated A-804598, human P2X7-1321N1 cell membranes.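 Note: ki obtained from the binding IC50 after correction for tracer concentration and tracer affinity.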 Conditions: 1 hour at 4° C.
Turning to `CCOC(=O)C1c2ncn(-c3cnccn3)c2CCN1C(=O)c1cccc(C(F)(F)F)c1Cl` (stereo not shown) [Example 28, Ethyl 5-{[2-chloro-3-(trifluoromethyl)phenyl]carbonyl}-1-pyrazin-2-yl-4,5,6,7-tetrahydro-1H-imidazo[4,5-c]pyridine-4-carboxylate], the Ki is 79.4 nM.

On to `C[C@H]1c2ncn(-c3ccc(F)cc3)c2CCN1C(=O)c1cccc(C(F)(F)F)c1Cl` (single isomer, unassigned) [Example 47], for which the affinity, expressed as Ki, was 316 nM.

`CC1c2nnn(-c3ccc(F)cn3)c2CCN1C(=O)c1cccc(C(F)(F)F)c1Cl` (stereo not shown) [Example 71, 5-{[2-Chloro-3-(trifluoromethyl)phenyl]carbonyl}-1-(5-fluoropyridin-2-yl)-4-methyl-4,5,6,7-tetrahydro-1H-[1,2,3]triazolo[4,5-c]pyridine] showed a Ki of 251 nM.

Turning to `O=C(c1cccc(C(F)(F)F)c1Cl)N1CCc2c(ncn2-c2ccccc2)C1CO` (stereo not shown) [Example 30, (5-{[2-Chloro-3-(trifluoromethyl)phenyl]carbonyl}-1-phenyl-4,5,6,7-tetrahydro-1H-imidazo[4,5-c]pyridin-4-yl)methanol], the affinity, expressed as Ki, was 398 nM.

The compound `O=C(c1cccc(C(F)(F)F)c1Cl)N1CCc2c(nc(C(F)(F)F)n2-c2ccccc2)C1` [Example 38, (2-Chloro-3-(trifluoromethyl)phenyl)(1-phenyl-2-(trifluoromethyl)-6,7-dihydro-1H-imidazo[4,5-c]pyridin-5(4H)-yl)methanone] displayed a Ki of 251 nM.

On to `Cn1nc(-c2ccc(F)cc2)c2c1CN(C(=O)c1cccc(C(F)(F)F)c1Cl)CC2` [Example 106, 6-{[2-Chloro-3-(trifluoromethyl)phenyl]carbonyl}-3-(4-fluorophenyl)-1-methyl-4,5,6,7-tetrahydro-1H-pyrazolo[3,4-c]pyridine], for which the Ki was 251 nM.

`COc1ccccc1-n1nnc2c1CCN(C(=O)c1cccc(C(F)(F)F)c1Cl)C2` [Example 125, (2-Chloro-3-(trifluoromethyl)phenyl)(1-(2-methoxyphenyl)-6,7-dihydro-1H-[1,2,3]triazolo[4,5-c]pyridin-5(4H)-yl)methanone] returned an inhibition constant Ki of 251 nM.

In the case of `CC(C)C1c2ncn(-c3cnccn3)c2CCN1C(=O)c1cccc(C(F)(F)F)c1Cl` (stereo not shown) [Example 16, (2-Chloro-3-(trifluoromethyl)phenyl)(4-isopropyl-1-(pyrazin-2-yl)-6,7-dihydro-1H-imidazo[4,5-c]pyridin-5(4H)-yl)methanone], the Ki turned out to be 251 nM.

In turn, `Cc1nc2c(n1-c1ccccc1)CCN(C(=O)c1cccc(C(F)(F)F)c1Cl)C2` [Example 37, (2-Chloro-3-(trifluoromethyl)phenyl)(2-methyl-1-phenyl-6,7-dihydro-1H-imidazo[4,5-c]pyridin-5(4H)-yl)methanone] displayed a Ki of 79.4 nM.

In turn, `CC1(C)c2ncn(-c3ccccc3)c2CCN1C(=O)c1cccc(C(F)(F)F)c1Cl` [Example 53, 5-{[2-Chloro-3-(trifluoromethyl)phenyl]carbonyl}-4,4-dimethyl-1-phenyl-4,5,6,7-tetrahydro-1H-imidazo[4,5-c]pyridine] gave a Ki of 741 nM.

Take `O=C(c1cccc(Cl)c1Cl)N1CCc2c(-c3ccc(F)cc3)n[nH]c2C1` [Example 114, 6-[(2,3-Dichlorophenyl)carbonyl]-3-(4-fluorophenyl)-4,5,6,7-tetrahydro-2H-pyrazolo[3,4-c]pyridine]: the affinity, expressed as Ki, was 251 nM.

Regarding `CC1c2nnn(-c3cncnc3)c2CCN1C(=O)c1cccc(C(F)(F)F)c1Cl` (stereo not shown) [Example 177, (2-Chloro-3-(trifluoromethyl)phenyl)(4-methyl-1-(pyrimidin-5-yl)-6,7-dihydro-1H-[1,2,3]triazolo[4,5-c]pyridin-5(4H)-yl)methanone], the affinity corresponds to a Ki of 79.4 nM.

Consider `CC1c2ncn(-c3cnccn3)c2C=CN1C(=O)c1cccc(C(F)(F)F)c1Cl` (stereo not shown) [Example 56, 5-{[2-Chloro-3-(trifluoromethyl)phenyl]carbonyl}-4-methyl-1-pyrazin-2-yl-4,5-dihydro-1H-imidazo[4,5-c]pyridine], for which affinity was put at a Ki of 79.4 nM.

The compound `CC1C=CN=C(n2nnc3c2CCN(C(=O)c2cccc(C(F)(F)F)c2Cl)[C@@H]3C)N1` (single isomer, unassigned) [Example 234, (4R*)-(2-Chloro-3-(trifluoromethyl)phenyl)((4R)-4-methyl-1-(6-methyl-1,6-dihydropyrimidin-2-yl)-6,7-dihydro-1H-[1,2,3]triazolo[4,5-c]pyridin-5(4H)-yl)methanone] had a Ki of 79.4 nM.

In turn, `CC1CN(C(=O)c2cccc(C(F)(F)F)c2Cl)C(C)c2nnn(-c3ccc(F)cc3)c21` (stereo not shown) [Example 238, (2-Chloro-3-(trifluoromethyl)phenyl)(1-(4-fluorophenyl)-4,7-dimethyl-6,7-dihydro-1H-[1,2,3]triazolo[4,5-c]pyridin-5(4H)-yl)methanone] gave an inhibition constant Ki of 79.4 nM.

A further experiment concerns the target T1, P2X7. The experiment is described as follows: Ca2+ flux (FLIPR) in 1321N1 cells expressing recombinant human P2X7 channel.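 Note: Calcium-4 dye-loaded cells exposed to compound for 30 min before agonist addition, fluorescence change read 180 s after agonist.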 Conditions: 250 μM BzATP. It is filed as cell-based.
As for `Cn1nc(-c2cccnc2)c2c1CN(C(=O)c1cccc(C(F)(F)F)c1Cl)CC2` [Example 108, 6-{[2-Chloro-3-(trifluoromethyl)phenyl]carbonyl}-1-methyl-3-pyridin-3-yl-4,5,6,7-tetrahydro-1H-pyrazolo[3,4-c]pyridine], the IC50 worked out at 12.6 nM.

Take `CCOc1cccnc1-n1nnc2c1CCN(C(=O)c1cccc(C(F)(F)F)c1Cl)[C@H]2C` (single isomer, unassigned) [Example 317, (S*)-(2-chloro-3-(trifluoromethyl)phenyl)(1-(3-ethoxypyridin-2-yl)-4-methyl-6,7-dihydro-1H-[1,2,3]triazolo[4,5-c]pyridin-5(4H)-yl)methanone]: the IC50 was over 10000 nM.

In another experiment the target is rat P2X7 (Rattus norvegicus (Rat), UniProt Q64663). The experiment is described as follows: Ca2+ flux (FLIPR) in 1321N1 cells expressing recombinant rat P2X7 channel.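 Note: Calcium-4 dye fluorescence change read 180 s after agonist addition, following 30 min cell preincubation with test compound.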 Type of experiment: cell-based. The note with it: 250 μM BzATP.
As for `C[C@H]1c2ncn(-c3ncc(F)cn3)c2CCN1C(=O)c1cccc(C(F)(F)F)c1Cl` (single isomer, unassigned) [Example 194, (S*)-(2-Chloro-3-(trifluoromethyl)phenyl)(1-(5-fluoropyrimidin-2-yl)-4-methyl-6,7-dihydro-1H-imidazo[4,5-c]pyridin-5(4H)-yl)methanone], the IC50 is over 10000 nM.

On to `CC1Cc2c(nnn2-c2cc(F)ccn2)CN1C(=O)c1cccc(C(F)(F)F)c1Cl` (stereo not shown) [Example 176, (2-Chloro-3-(trifluoromethyl)phenyl)(1-(4-fluoropyridin-2-yl)-6-methyl-6,7-dihydro-1H-[1,2,3]triazolo[4,5-c]pyridin-5(4H)-yl)methanone], for which the concentration for half-maximal inhibition (IC50) was determined as 7.2 nM.

On to `C[C@@H]1Cc2c(nnn2-c2ccc(F)cc2)[C@H](C)N1C(=O)c1cccc(C(F)(F)F)c1Cl` [Example 286, (2-chloro-3-(trifluoromethyl)phenyl)((4S,6R)-1-(4-fluorophenyl)-4,6-dimethyl-6,7-dihydro-1H-[1,2,3]triazolo[4,5-c]pyridin-5(4H)-yl)methanone], for which the IC50 is 144 nM.

As to `Cn1nc2c(c1-c1cccnc1)CCN(C(=O)c1cccc(Cl)c1Cl)C2` [Example 111, 6-[(2,3-Dichlorophenyl)carbonyl]-2-methyl-3-pyridin-3-yl-4,5,6,7-tetrahydro-2H-pyrazolo[3,4-c]pyridine], the IC50 came to 1580 nM.

In the case of `O=C(c1cccc(C(F)(F)F)c1Cl)N1CCc2c(nc(C(F)(F)F)n2-c2ccccc2)C1` [Example 38, (2-Chloro-3-(trifluoromethyl)phenyl)(1-phenyl-2-(trifluoromethyl)-6,7-dihydro-1H-imidazo[4,5-c]pyridin-5(4H)-yl)methanone], the concentration for half-maximal inhibition (IC50) turned out to be 126 nM.

For the compound `CC1c2ncn(-c3ccccn3)c2CCN1C(=O)c1cccc(C(F)(F)F)c1Cl` (stereo not shown) [Example 17, (2-Chloro-3-(trifluoromethyl)phenyl)(4-methyl-1-(pyridin-2-yl)-6,7-dihydro-1H-imidazo[4,5-c]pyridin-5(4H)-yl)methanone], the IC50 was 156 nM.

In the case of `Cc1c(C(=O)N2CCc3c(nnn3-c3ncccn3)C2C)cccc1C(F)(F)F` (stereo not shown) [Example 282, (4-methyl-1-(pyrimidin-2-yl)-6,7-dihydro-1H-[1,2,3]triazolo[4,5-c]pyridin-5(4H)-yl)(2-methyl-3-(trifluoromethyl)phenyl)methanone], the IC50 was 19.1 nM.

Regarding `CC1Cc2c(nnn2-c2ncc(F)cn2)CN1C(=O)c1ccc(F)c(Cl)c1Cl` (stereo not shown) [Example 213, 5-[(2,3-Dichloro-4-fluorophenyl)carbonyl]-1-(5-fluoropyrimidin-2-yl)-6-methyl-4,5,6,7-tetrahydro-1H-[1,2,3]triazolo[4,5-c]pyridine], the IC50 was found to be 10.6 nM.

Regarding `O=C(c1ccc(Cl)cc1Cl)N1CCc2c(nnn2-c2ncccn2)C1` [Example 257, (2,4-dichlorophenyl)(1-(pyrimidin-2-yl)-6,7-dihydro-1H-[1,2,3]triazolo[4,5-c]pyridin-5(4H)-yl)methanone], the IC50 amounted to 6170 nM.

In the case of `Cc1c(C(=O)N2CCc3c(nnn3-c3ncccn3)[C@H]2C)cccc1C(F)(F)F` (single isomer, unassigned) [Example 188, (R*)-(4-methyl-1-(pyrimidin-2-yl)-6,7-dihydro-1H-[1,2,3]triazolo[4,5-c]pyridin-5(4H)-yl)(2-methyl-3-(trifluoromethyl)phenyl)methanone], the 50% inhibitory concentration (IC50) is 8.5 nM.

Consider `CC1Cc2c(nnn2-c2cc[nH]n2)CN1C(=O)c1cccc(C(F)(F)F)c1Cl` (stereo not shown) [Example 210, (2-chloro-3-(trifluoromethyl)phenyl)(6-methyl-1-(1H-pyrazol-3-yl)-6,7-dihydro-1H-[1,2,3]triazolo[4,5-c]pyridin-5(4H)-yl)methanone], for which the IC50 came to 7.7 nM.

Regarding `C[C@@H]1c2nnn(-c3ccccn3)c2CCN1C(=O)c1ccc(F)c(Cl)c1Cl` (single isomer, unassigned) [Example 141, (R*)-(2,3-Dichloro-4-fluorophenyl)(4-methyl-1-(pyridin-2-yl)-6,7-dihydro-1H-[1,2,3]triazolo[4,5-c]pyridin-5(4H)-yl)methanone], the concentration for half-maximal inhibition (IC50) is over 10000 nM.

Take `CC1c2ncn(-c3ccc(F)cc3)c2CCN1C(=O)c1cccc(C(F)(F)F)c1Cl` (stereo not shown) [Example 18, (2-Chloro-3-(trifluoromethyl)phenyl)(1-(4-fluorophenyl)-4-methyl-6,7-dihydro-1H-imidazo[4,5-c]pyridin-5(4H)-yl)methanone]: the IC50 is 916 nM.

Turning to `Cn1nc2c(c1-c1cccnc1)CCN(C(=O)c1cccc(C(F)(F)F)c1Cl)C2` [Example 107, 6-{[2-Chloro-3-(trifluoromethyl)phenyl]carbonyl}-2-methyl-3-pyridin-3-yl-4,5,6,7-tetrahydro-2H-pyrazolo[3,4-c]pyridine], the IC50 stood at 794 nM.
